Experimental findings from PubChem BioAssay AID932 (The Scripps Research Institute Molecular Screening Center, 2007) are described below.

The entries are a selection whose mix differs from that of the whole data set. The source made the active and inactive calls.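 How the source made its calls: active means activation above the screen-wide mean activation plus 3 SD (cut at about 130% in these data); inactive means the rest.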

This assay in a line: STAT1 signaling activators, primary screen, cell-based, HTS, luciferase reporter (AID 932).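 Further: raw ratio to IFN-gamma control signal so 100% means no change and 0% no light.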 As to conditions: NIH 3T3 STAT1-luciferase reporter, IFN-gamma, luminescence; at 5.5 µM; active compounds read high; 100% = IFN-gamma alone, no compound. (A reporter such as luciferase makes a cellular process visible.)
With `CN1CCC(Nc2cccc(F)c2)CC1`, the activation (% of control) was inactive: 104%.

As to `COc1ccc(CN(CCCl)CCCl)cc1Cl`, the activation (% of control) was inactive: 89.3%.

`CN(C)c1cccc(C(=O)NCC2(N3CCCCC3)CCCCC2)c1`: the activation (% of control) was inactive: 99.1%.

Consider `CC(C)c1ccc(NC2CCN(C(=O)OC(C)(C)C)CC2)cc1`, for which the activation (% of control) is inactive: 120%.

Regarding `COc1ccc(NC2CCN(C(=O)OC(C)(C)C)CC2)cc1`, the activation (% of control) was inactive: 108%.

On to `CN1CCN(CCOC(=O)C(O)(c2ccccc2)c2ccccc2)CC1`, for which the activation (% of control) was inactive: 103%.

In the case of `O=C(NCC1(N2CCOCC2)CCCCC1)c1cc(=O)[nH]c2ccccc12`, the activation (% of control) is inactive: 100%.

Turning to `O=C(NCC1(N2CCCCC2)CCCCC1)c1cccc([N+](=O)[O-])c1`, the activation (% of control) was inactive: 98.2%.

As to `N#CC1(Nc2ccccc2)CCN(CCc2ccccc2)CC1`, the activation (% of control) was inactive: 104%.

For `COc1ccc(NC2CCN(CCc3ccccc3)CC2)c(OC)c1`, the activation (% of control) was inactive: 104%.

On to `CCOC(=O)N1CCC(Nc2ccc(OC)cc2)CC1`, for which the activation (% of control) was inactive: 85.8%.

On to `O=C(OC1CN2CCC1CC2)C1c2ccccc2Oc2ccccc21` (stereo not given), for which the activation (% of control) was inactive: 112%.

As for `O=C(NCC1(N2CCOCC2)CCCCC1)c1cc2ccccc2o1`, the activation (% of control) is inactive: 97.6%.

In the case of `COc1ccc(C(=O)NCC2(N3CCCCC3)CCCCC2)c(OC)c1OC`, the activation (% of control) is inactive: 97.2%.

As to `CCC(CO)(C(=O)OC1CN2CCC1CC2)c1ccccc1` (stereo not given), the activation (% of control) is inactive: 106%.

Turning to `COc1cc(OC)cc(C(=O)NCC2(N3CCOCC3)CCCCC2)c1`, the activation (% of control) was inactive: 97.5%.

With `CC(C)(C)OC(=O)N1CCC(Nc2ccccc2)CC1`, the activation (% of control) was inactive: 98.2%.

In the case of `CCOc1ncccc1C(=O)NCC1(N2CCOCC2)CCCCC1`, the activation (% of control) was inactive: 96.5%.

As to `CN(C)c1ccc(C(=O)NCC2(N3CCCCC3)CCCCC2)cc1`, the activation (% of control) is inactive: 106%.

With `CCN1CCC(Nc2cccc(F)c2)CC1`, the activation (% of control) is inactive: 94.8%.

As for `c1ccc(CN2CCC(Nc3ccccc3)CC2)cc1`, the activation (% of control) is inactive: 101%.

For the compound `N#Cc1ccc(C(=O)NCC2(N3CCCCC3)CCCCC2)cc1`, the activation (% of control) was inactive: 106%.

Take `O=C(OC1CN2CCC1CC2)C1c2ccccc2C=Cc2ccccc21` (stereo not given): the activation (% of control) was inactive: 94.3%.

Regarding `N/C(=N\O)c1c(N)no[n+]1[O-]`, the activation (% of control) was inactive: 101%.

Turning to `COc1ccc(C(=O)NCC2(N3CCOCC3)CCCCC2)cc1OC`, the activation (% of control) was inactive: 101%.
